Values of other authors in patent publication US20100017370A1, “T CELL EPITOPE DATABASES” (ANTITOPE LIMITED, priority 2006, published 2010).

Settings: human, in vivo; cited from earlier work

humanised anti-HER2 antibody: humanised anti-HER2 antibody known as Herceptin®
clinical immunogenicity compared to humanised A33: lower level of clinical immunogenicity
